The record followed here is patent US20260116884A1, “PROTAC CHIMERIC COMPOUND, PREPARATION METHOD THEREFOR AND USE THEREOF” (HANGZHOU ZHONGMEIHUADONG PHARMACEUTICAL CO., LTD., priority 2022, published 2026).

Sequences of proteins named here, by UniProt entry; tags and fusion partners are left off.
UniProt Q92918, whole entry: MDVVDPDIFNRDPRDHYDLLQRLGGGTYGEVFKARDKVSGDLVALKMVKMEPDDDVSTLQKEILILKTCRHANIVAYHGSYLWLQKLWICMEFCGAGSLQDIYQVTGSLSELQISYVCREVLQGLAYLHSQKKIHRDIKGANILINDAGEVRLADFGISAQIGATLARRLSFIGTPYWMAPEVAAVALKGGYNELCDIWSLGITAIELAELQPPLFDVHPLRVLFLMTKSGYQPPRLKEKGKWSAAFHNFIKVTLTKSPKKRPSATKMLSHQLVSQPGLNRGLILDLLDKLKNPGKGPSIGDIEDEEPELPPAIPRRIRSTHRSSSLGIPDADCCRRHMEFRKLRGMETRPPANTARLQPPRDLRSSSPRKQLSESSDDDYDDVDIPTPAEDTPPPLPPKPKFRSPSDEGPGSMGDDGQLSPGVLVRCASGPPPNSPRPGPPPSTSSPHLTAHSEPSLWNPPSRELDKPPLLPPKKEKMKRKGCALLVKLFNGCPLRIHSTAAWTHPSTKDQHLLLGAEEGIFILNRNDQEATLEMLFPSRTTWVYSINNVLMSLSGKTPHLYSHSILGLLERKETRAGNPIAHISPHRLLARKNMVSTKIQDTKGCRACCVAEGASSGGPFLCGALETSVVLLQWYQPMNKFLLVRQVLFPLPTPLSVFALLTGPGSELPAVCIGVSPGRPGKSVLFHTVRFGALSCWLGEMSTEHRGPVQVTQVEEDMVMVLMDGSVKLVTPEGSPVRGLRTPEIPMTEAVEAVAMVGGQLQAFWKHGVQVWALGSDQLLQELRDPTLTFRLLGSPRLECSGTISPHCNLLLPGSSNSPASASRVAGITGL

The test system of experiment [1] is IL2 activation in human PBMC. The experiment is described as follows: IL2 activity assay (ELISA) in human PBMC. The format is cell-based. To be noted: read-out: IL2 EC50, CD3/CD28 antibody, 24 h. Background: An ELISA detects its analyte on a solid surface through an enzyme-linked reagent.
The target in the next experiment is human HPK1 (Homo sapiens, UniProt Q92918). The experiment is described as follows: HPK1 protein degradation assay (WB) in RAMOS cell line. The format is cell-based. To be noted: RAMOS cells, 16 h, Western blot.

Usually Dmax stands for the largest share of the target that was removed. Read a high Dmax as a fuller loss of target.

Regarding `CCN1CCC(n2cc(-c3c[nH]c4ncc(-c5ccc(N6CCC(CC7CCN(C(=O)c8ccc(C)c(N9CCC(=O)NC9=O)c8)CC7)CC6)cc5)nc34)cn2)CC1`, the EC50 in experiment [1] was found to be 37.1 nM. This compound had a Dmax on human HPK1 of 52.47%.
